System: wild-type mice
Experiment: DOX treatment in vivo: serial echocardiography
Conditions: T1 (16 days) and T2 (42 days); DOX alone or with concurrent PepB

COc1cccc2c1C(=O)c1c(O)c3c(c(O)c1C2=O)C[C@@](O)(C(=O)CO)C[C@@H]3O[C@H]1C[C@H](N)[C@H](O)[C@H](C)O1 [DOX, doxorubicin]
negatively impaired: ejection fraction (EF %) | fractional shortening (FS %) | isovolumetric relaxation time (IVRT)

Reference: patent US12344644B2, “Amelioration and treatment of infarction damage with a polypeptide segement of BNIP3” (priority 2021, dated 2025)
